# Measurements as given in PubChem BioAssay AID743445 (Broad Institute, 2014).
# Sequences of proteins named here, by UniProt entry; tags and fusion partners are left off.
# UniProt O96028, whole entry: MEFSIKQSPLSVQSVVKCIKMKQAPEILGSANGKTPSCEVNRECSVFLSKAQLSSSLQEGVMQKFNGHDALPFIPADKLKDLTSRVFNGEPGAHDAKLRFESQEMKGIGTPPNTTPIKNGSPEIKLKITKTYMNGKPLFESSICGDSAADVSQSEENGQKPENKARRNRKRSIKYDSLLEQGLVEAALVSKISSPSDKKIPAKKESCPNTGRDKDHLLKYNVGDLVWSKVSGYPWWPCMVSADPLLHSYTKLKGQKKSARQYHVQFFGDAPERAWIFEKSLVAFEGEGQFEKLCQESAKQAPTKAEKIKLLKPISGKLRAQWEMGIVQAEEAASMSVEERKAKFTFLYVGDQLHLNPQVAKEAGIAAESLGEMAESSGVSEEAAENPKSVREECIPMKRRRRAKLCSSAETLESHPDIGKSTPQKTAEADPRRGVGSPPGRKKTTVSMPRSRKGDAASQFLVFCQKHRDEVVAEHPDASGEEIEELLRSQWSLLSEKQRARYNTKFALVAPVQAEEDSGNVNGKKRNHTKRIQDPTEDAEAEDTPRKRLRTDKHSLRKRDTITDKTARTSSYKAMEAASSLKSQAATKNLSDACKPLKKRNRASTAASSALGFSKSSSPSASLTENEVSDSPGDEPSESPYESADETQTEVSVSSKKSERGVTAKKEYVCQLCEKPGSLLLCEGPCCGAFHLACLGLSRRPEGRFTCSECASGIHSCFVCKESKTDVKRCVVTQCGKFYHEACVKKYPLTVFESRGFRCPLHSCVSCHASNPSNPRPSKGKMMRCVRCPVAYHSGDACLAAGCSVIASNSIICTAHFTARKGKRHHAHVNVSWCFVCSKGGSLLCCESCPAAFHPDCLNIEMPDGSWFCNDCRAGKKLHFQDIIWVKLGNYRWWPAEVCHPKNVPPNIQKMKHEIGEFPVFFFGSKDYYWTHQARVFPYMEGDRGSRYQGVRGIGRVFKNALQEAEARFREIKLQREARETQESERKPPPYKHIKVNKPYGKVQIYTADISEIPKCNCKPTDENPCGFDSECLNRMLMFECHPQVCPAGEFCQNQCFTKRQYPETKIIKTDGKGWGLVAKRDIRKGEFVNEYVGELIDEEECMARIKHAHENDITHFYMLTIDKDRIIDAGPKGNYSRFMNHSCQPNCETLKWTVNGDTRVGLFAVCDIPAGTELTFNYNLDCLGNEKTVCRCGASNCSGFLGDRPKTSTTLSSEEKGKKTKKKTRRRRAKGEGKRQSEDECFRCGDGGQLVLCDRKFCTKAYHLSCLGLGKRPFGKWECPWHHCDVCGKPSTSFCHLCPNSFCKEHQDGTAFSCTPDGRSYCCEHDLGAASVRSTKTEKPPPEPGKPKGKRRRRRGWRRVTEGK
# The list shows a part of the results, in another mix than the full data. Active and inactive are the calls of the source. Cut-off read from the data, not from the text of the source: active = inhibition above about 50%; inactive = the rest.
# Target: Histone-lysine N-methyltransferase NSD2 (Homo sapiens) (UniProt O96028)
# Experiment: blockers of NSD2 lysine methylation activity – biochemical, AlphaScreen, single concentration, set 2, primary screen (AID 743445)
# Details: NSD2 peptide methylation, 120 min, at 12.5 µM, hits give high values
row,Compound,inhibition
1,CCc1ccc(OP(C)(=O)O)cc1,inactive: -1.69%
2,CP(=O)(Nc1ccccn1)Oc1ccccc1 (centres undefined),inactive: -2.79%
3,O=[N+]([O-])c1cc([N+](=O)[O-])c(Nc2ccccn2)c([N+](=O)[O-])c1,inactive: 46.9%
4,Cc1c(NP(C)(=O)Oc2ccc(C(C)C)cc2)c(=O)n(-c2ccccc2)n1C (centres undefined),inactive: -4.16%
5,CN(C)CCOC(=O)C(O)(c1ccccc1)C1CCCC1 (centres undefined),inactive: 1.79%
6,COc1ccccc1OP(C)(=O)Nc1ccc(Br)cc1 (centres undefined),inactive: -4.21%
7,CP(=O)(OCCOc1ccccc1)OCCOc1ccccc1,inactive: 0.834%
8,CP(=O)(Nc1ccc(Cl)cc1Cl)Oc1ccccc1 (centres undefined),inactive: 31%
9,COc1ccc(OP(C)(=O)Nc2ccccc2Br)cc1 (centres undefined),inactive: -3.03%
10,COc1ccccc1OP(C)(=O)Nc1ccc(C)c(C)c1 (centres undefined),inactive: 0.655%
11,Cc1cc(C)cc(OP(C)(=O)Nc2cccc(C(F)(F)F)c2)c1 (centres undefined),inactive: 0.664%
12,O=C1C(O)=C([N+](=O)[O-])C(=O)C(O)=C1[N+](=O)[O-],inactive: 17.2%
13,CP(=O)(OC12CC3CC(CC(C3)C1)C2)OC12CC3CC(CC(C3)C1)C2,inactive: 0.865%
14,CCOC(=O)c1ccc(NP(C)(=O)Oc2ccc(Cl)cc2)cc1 (centres undefined),inactive: -1.16%
15,CN(C)C(=O)c1c([N+](=O)[O-])cc([N+](=O)[O-])cc1[N+](=O)[O-],inactive: 44%
16,CP(=O)(Nc1ccc(Cl)cc1)Oc1ccc(F)cc1 (centres undefined),inactive: 0.023%
17,CC(C)(C)c1ccc(OP(C)(=O)O)cc1,inactive: 2.62%
18,COc1ccccc1OP(C)(=O)Nc1ccccc1Br (centres undefined),inactive: -1.56%
19,CP(=O)(Oc1ccccc1)N1CCOC1=O (centres undefined),inactive: -2.78%
20,O=C(OCCCN1CCCC1)C(O)(c1ccccc1)C1CCCCC1 (centres undefined),inactive: 1.85%

row,Compound,inhibition
1,COc1ccccc1OP(C)(=O)Nc1c(C)n(C)n(-c2ccccc2)c1=O (centres undefined),inactive: 2.49%
2,COc1ccc(OP(C)(=O)Nc2ccc(Br)cc2)cc1 (centres undefined),inactive: -0.863%
3,O=[N+]([O-])c1cc([N+](=O)[O-])c(C(F)(F)F)c([N+](=O)[O-])c1O,inactive: 5.05%
4,Cc1ccccc1NP(C)(=O)Nc1ccccc1C,inactive: -0.583%
5,CP(=O)(Nc1ccc2c(c1)OCCO2)Oc1ccccc1 (centres undefined),inactive: 0.898%
6,CCOP(C)(=S)SCC(=O)NC(C)(CC)C(=O)O (centres undefined),inactive: 2.36%
7,CP(=O)(Nc1ccc(SC(F)(F)F)cc1)Oc1ccc(F)cc1 (centres undefined),inactive: 0.121%
8,Cc1c(C(c2ccc3c(c2)OCO3)c2c(C)n(C)n(-c3ccccc3)c2=O)c(=O)n(-c2ccccc2)n1C.O=[N+]([O-])c1cc([N+](=O)[O-])c(O)c([N+](=O)[O-])c1,inactive: -14%
9,Cc1cc(-c2cccc3ccccc23)c(C)cn1.O=[N+]([O-])c1cc([N+](=O)[O-])c(O)c([N+](=O)[O-])c1,inactive: -5.64%
10,O=[N+]([O-])c1cc([N+](=O)[O-])c(NCC2CCS(=O)(=O)C2)c([N+](=O)[O-])c1 (centres undefined),inactive: 17.3%
11,O=[N+]([O-])c1ccc(OP2(=O)COCCO2)cc1 (centres undefined),inactive: -2.31%
12,COc1ccc(NP(C)(=O)Oc2ccccc2OC)cc1 (centres undefined),inactive: 1.15%
13,CN(C)CCOC(=O)C(O)(c1ccccc1)C1CCCCC1 (centres undefined),inactive: 10.1%
14,COc1ccc(OP(C)(=O)Nc2cccc(Br)c2)cc1 (centres undefined),inactive: 0.69%
15,CCCCCOc1ccc(NP(C)(=O)Oc2ccc(Cl)cc2Cl)cc1 (centres undefined),inactive: -1.25%
16,O=[N+]([O-])c1cc([N+](=O)[O-])c(OC2CCCCC2O)c([N+](=O)[O-])c1 (centres undefined),inactive: 1.61%
17,CP(=O)(Nc1ccccc1)Oc1ccc(F)cc1 (centres undefined),inactive: 0.53%
18,CCN(CC)CCCOC(=O)C(O)(c1ccccc1)C1CCCCC1 (centres undefined),inactive: 5.01%
19,Cc1c([N+](=O)[O-])cc([N+](=O)[O-])c(Br)c1[N+](=O)[O-],inactive: 0.355%
20,COc1ccc(OP(C)(=O)Nc2ccc(SC(F)(F)F)cc2)cc1 (centres undefined),inactive: -1.2%

row,Compound,inhibition
1,CCOC(=O)c1ccc(NP(C)(=O)Oc2ccc(F)cc2)cc1 (centres undefined),inactive: 1.49%
2,O=C(OCCN1CCN(CCOCc2ccccc2)CC1)C(O)(c1ccccc1)c1ccccc1,inactive: 0.82%
3,O=C(OC1CN2CCC1CC2)c1ccc([N+](=O)[O-])cc1 (centres undefined),inactive: 0.856%
4,CC(C)c1ccc(OP(C)(=O)Nc2ccc(SC(F)(F)F)cc2)cc1 (centres undefined),inactive: -0.747%
5,CP(=O)(Nc1ccccc1F)Oc1ccccc1 (centres undefined),inactive: -1.62%
6,O=[N+]([O-])c1cc([N+](=O)[O-])c(Nc2ccc(Cl)cc2)c([N+](=O)[O-])c1,inactive: 12.4%
7,CP(=O)(Nc1cccc(Br)c1)Oc1ccccc1 (centres undefined),inactive: -0.746%
8,Cc1cc(C)cc(OP(C)(=O)Nc2ccccn2)c1 (centres undefined),inactive: -1.7%
9,Cc1ccc(C)c(NP(C)(=O)Oc2ccccc2)c1 (centres undefined),inactive: -0.351%
10,Cc1cc(C)cc(OP(C)(=O)Nc2ccc(C)cc2C)c1 (centres undefined),inactive: -6.98%
11,CCOC(=O)c1ccc(NP(C)(=O)Oc2cc(C)cc(C)c2)cc1 (centres undefined),inactive: 8.27%
12,COc1ccccc1OP(C)(=O)Nc1cccc(Br)c1 (centres undefined),inactive: -2.74%
13,CC1=NCCc2c1[nH]c1ccccc21.O=[N+]([O-])c1cc([N+](=O)[O-])c(O)c([N+](=O)[O-])c1,inactive: 2.17%
14,O=C(O)c1cccc(Nc2c([N+](=O)[O-])cc([N+](=O)[O-])cc2[N+](=O)[O-])c1,inactive: 0.74%
15,CP(=O)(Nc1ccc(SC(F)(F)F)cc1)Oc1ccccc1 (centres undefined),inactive: -1.09%
16,CCCOc1ccc(NP(C)(=O)Oc2ccc(Cl)cc2)cc1 (centres undefined),inactive: -0.912%
17,COc1ccc(-c2ccccn2)cc1.O=[N+]([O-])c1cc([N+](=O)[O-])c(O)c([N+](=O)[O-])c1,inactive: -4.56%
18,CN1CCCCC1COC(=O)C1(O)c2ccccc2CCc2ccccc21 (centres undefined),inactive: 2.65%
19,COc1ccccc1OP(C)(=O)Nc1c(C)cccc1C (centres undefined),inactive: -1.57%
